UUG fidelity: alters start codon recognition fidelity in yeast; S. cerevisiae UUG-firefly luciferase reporter, luminescence/redox ratio; activity score, % at 18.7 µM; hit rate 0.13% among 350,000;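 active = replicate mean at a twofold rise or more, about +100% in these data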;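 also: firefly luciferase made from a UUG start codon reports start codon fidelity; reporter light over untreated wells divided by growth signal over untreated wells; some hits fall short of that in this replicate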
ABCB6 inh 2: human ABCB6 transporter inhibition. hit rate 0.19% among 360,000. K562-ABCB6 porphyrin accumulation, flow cytometry, 1 h; hits give low values. fluorescence ratio to DMSO, % at 10 µM. Q9NP58;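 active = fluorescence ratio to DMSO below 75%, the collection mean minus 3 SD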;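 note: signal is porphyrin accumulated inside mitochondria; 100% equals median channel fluorescence of DMSO control wells; lower ratio means ABCB6 inhibition with less porphyrin fluorescence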
PKA-R2B activ: activates the human PKA-R2B holoenzyme complex; hit rate 0.079% among 340,000; PKA-R2B holoenzyme dissociation, Cy5-IP20 fluorescence polarization; R2B truncated from residue 108, S112A mutant; 0% DMSO only, 100% 113 µM cGMP; activation, % at 11.4 µM; P22694+P31323;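 active = activation above a cutoff set at the mean over all compounds plus 3 SD, cut at about 18% in these data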;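 note: higher means more holoenzyme dissociation and a rise in polarization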
Granule exo inh: blocks lytic granule exocytosis; TALL-104 LAMP-1 surface exposure, flow cytometry; cells stimulated with thapsigargin and PMA; inhibition, % at 10 µM; hit rate 0.66% among 360,000; AID 651702;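 active = inhibition above about 55%, limit read from the data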
PKA-R1A act: activates the PKA-R1A holoenzyme complex; hit rate 0.083% among 340,000; activation, % at 11.4 µM; PKA-R1A dissociation, Cy5-IP20 fluorescence polarization; scaled: DMSO 0%, 113 µM cGMP 100%;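 active = percent activation above the mean of all tested compounds plus 3 SD, cut at about 19% in these data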;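 note: higher means more PKAc released from R1A so a rise in polarization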
pCIP destab: compounds decreasing mouse p/CIP protein stability. hit rate 0.01% among 290,000. F442A p/CIP-EGFP cells, EGFP fluorescence, 16 h. decrease of EGFP signal, % at 10 µM. Q05BA5;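 active = EGFP signal decrease of at least 30% at 10 µM or well 3 SD below plate mean, unless failing retest; inactive = the rest, including hits failing retest or dose response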
Granule exo CP1: blocks lytic granule exocytosis; shares compounds with Granule exo inh; TALL-104 cells, LAMP-1 externalization, flow cytometry; stimulated with PMA plus thapsigargin; inhibition, % at 10 µM; hit rate 11% among 1,500; in the data active = inhibition above about 60%;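 note: 0% = stimulated vehicle wells and 100% = unstimulated wells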
* = called active by the depositor; x = no result. Shown are actives, neighbours in structure and some others; about 0.94% of the full set was active somewhere.

No. | molecule | UUG fidelity | ABCB6 inh 2 | PKA-R2B activ | Granule exo inh
1 | C[C@@H]1CCCCO[C@H](CN(C)S(=O)(=O)c2ccc(Cl)cc2)[C@@H](C)CN([C@@H](C)CO)C(=O)c2cc(NS(=O)(=O)c3cn(C)cn3)ccc2O1 | 13.4 | x | x | x
2 | CCCCn1c(NS(=O)(=O)c2ccc(C)cc2)c(S(=O)(=O)c2ccccc2)c2nc3ccccc3nc21 | -20.1 | 103.0 | -2.0 | 67.9*
3 | C[C@H](CO)N1C[C@H](C)[C@@H](CN(C)C(=O)Nc2cccc3ccccc23)OCc2cnnn2CCCC1=O | 0.3 | x | x | x
4 | C[C@H](CO)N1C[C@H](C)[C@@H](CN(C)C(=O)NC2CCCC2)Oc2ncc(Br)cc2C1=O | 34.5 | x | x | x
5 | CNCc1ccccc1Sc1cc(O)ccc1O | x | 102.0 | 7.3 | 73.4*
6 | Cc1ccc2c(CN(C)Cc3ccccc3)cc(=O)oc2c1C | -7.1 | 96.0 | 0.8 | -17.6
7 | Cc1ccc2c(CN(C)Cc3ccc(OC(F)F)cc3)cc(=O)oc2c1C | -1.6 | 94.0 | -4.9 | 83.5*
8 | O=C(C[C@@H]1CC[C@H]2[C@@H](COC[C@@H](O)CN2C(=O)Nc2ccc(F)cc2)O1)NC1Cc2ccccc2C1 | 0.5 | x | x | x

No. | PKA-R1A act | pCIP destab | Granule exo CP1
1 | x | x | x
2 | 8.9 | -3.0 | 0.2
3 | x | x | x
4 | x | x | x
5 | -4.5 | -9.1 | 9.2
6 | -11.9 | -6.1 | x
7 | -2.4 | 2.4 | -12.3
8 | x | x | x

(continued)
No. | molecule | UUG fidelity | ABCB6 inh 2 | PKA-R2B activ | Granule exo inh
9 | CCOC(=O)C1(Cc2cccc(Cl)c2)CCCN(C(=O)c2c(CC)noc2C)C1 (stereo not drawn) | -13.8 | 97.0 | 1.6 | 59.2*
10 | CCOC(=O)C1(Cc2cccc(Cl)c2)CCCN(C(=O)c2cc(C)on2)C1 (stereo not drawn) | -6.9 | 104.0 | -2.0 | 1.4
11 | CO[C@H]1CN(C)C(=O)c2cc(NC(=O)C3CC3)ccc2OC[C@@H](C)N(C(=O)c2ccccc2)C[C@@H]1C | 7.3 | x | x | x
12 | COc1ccc(CN(C)C(=O)c2ccc(OCC(=O)Nc3cccc(C(F)(F)F)c3)c(OC)c2)cc1 | 0.4 | 89.0 | 0.9 | -3.7
13 | COc1ccc(CN(C)C(=O)c2ccc(Oc3ccccc3)cc2)cc1F | -15.2 | 91.0 | 7.1 | 66.8*
14 | CN(Cc1ccc2ccccc2c1)C(=O)c1ccc(C(F)(F)F)cc1 | -9.5 | 83.0 | -7.0 | 59.8*
15 | Cc1ccsc1CN(C)C(=O)c1ccc(Oc2ccccc2)cc1 | x | 100.0 | -3.5 | 113.1*
16 | Cc1noc(C)c1NC(=O)Nc1ccc2c(c1)C(=O)N([C@H](C)CO)C[C@H](C)[C@@H](CN(C)S(=O)(=O)c1cn(C)cn1)OCCCC[C@H](C)O2 | 9.6 | x | x | x

No. | PKA-R1A act | pCIP destab | Granule exo CP1
9 | 8.0 | -9.6 | -4.5
10 | -0.6 | -3.2 | x
11 | x | x | x
12 | 0.3 | x | x
13 | -5.9 | -8.8 | -3.5
14 | -2.3 | 6.3 | -10.8
15 | -5.7 | 4.0 | -14.0
16 | x | x | x

Additional results:
No. | molecule | UUG fidelity | ABCB6 inh 2 | PKA-R2B activ | Granule exo inh
17 | CCC(=O)N1C[C@@H](C)[C@@H](OC)CN(C)C(=O)c2cc(NS(C)(=O)=O)ccc2OC[C@H]1C | -2.1 | x | x | x
18 | Cc1cc(C)nc(/N=C(\N)Nc2cccc(OCc3ccccc3)c2)n1 | 4.1 | 93.0 | -17.9 | 85.3*
19 | CCOC(=O)C(C(=O)OCC)C(C(=O)OCC)N1CCOCC1 (stereo not drawn) | x | 91.0 | 4.1 | 87.5*
20 | CCOC(=O)C(C)CC(C)C(=O)N1CCOCCOCCN(C(=O)C(C)CC(C)C(=O)OCC)CCOCC1 (stereo not drawn) | -20.4 | 97.0 | -1.8 | 0.0
21 | COC(=O)c1sccc1NC(=S)Nc1ccc(F)cc1F | x | 99.0 | 4.1 | 60.0*
22 | COc1ccc2[nH]c3c(C)c4ccncc4c(C)c3c2c1 | 16.9 | 159.0 | 11.6 | 70.2*
23 | Cc1ccc(C)c(S(=O)(=O)NCCCc2ccccc2)c1 | 19.1 | 103.0 | -7.4 | 58.4*
24 | C[C@@H]1CCCCO[C@H](CN(C)Cc2ccc(C(F)(F)F)cc2)[C@H](C)CN([C@H](C)CO)C(=O)c2cc(NC(=O)C3CCCCC3)ccc2O1 | 9.8 | x | x | x

No. | PKA-R1A act | pCIP destab | Granule exo CP1
17 | x | x | x
18 | 6.1 | -13.8 | -10.3
19 | -2.5 | -9.4 | 13.9
20 | 2.0 | -0.7 | x
21 | -7.3 | -8.1 | -4.5
22 | 4.4 | -14.8 | 18.0
23 | -2.3 | -16.1 | -13.5
24 | x | x | x

Further compounds
No. | molecule | UUG fidelity | ABCB6 inh 2 | PKA-R2B activ | Granule exo inh
25 | Cc1cc(C)nc(Nc2nc(C(N)c3ccccc3)cs2)n1 (stereo not drawn) | 0.0 | 103.0 | x | -6.9
26 | Cc1cc(C)nc(Nc2nc(-c3ccccc3)cs2)n1 | -66.1 | 95.0 | -6.8 | 76.5*
27 | Cc1noc(C)c1NC(=O)N(C)C[C@H]1Oc2ccc(NS(=O)(=O)c3cccs3)cc2C(=O)N([C@@H](C)CO)C[C@@H]1C | 5.5 | x | x | x
28 | COc1ccc(OC)c(Nc2c3c(nc4ccccc24)CCC3)c1 | 13.3 | 107.0 | -9.8 | 58.1*
29 | COc1ccc(OC)c(Nc2cc(C)c3ccccc3n2)c1 | 0.1 | 97.0 | -1.9 | -13.4
30 | COc1ccc2nc3c(c(-c4ccccc4)c2c1)CCC3 | -23.9 | 108.0 | 6.8 | 66.5*
31 | COc1ccc([N+](=O)[O-])cc1Nc1c2ccccc2nc2ccccc12 | -2.7 | 91.0 | -2.1 | 72.9*
32 | COc1ccc(OC)c(Nc2c3ccccc3nc3ccccc23)c1 | -5.8 | 89.0 | 9.6 | 67.0*

No. | PKA-R1A act | pCIP destab | Granule exo CP1
25 | x | x | x
26 | 2.7 | 4.0 | -5.7
27 | x | x | x
28 | -2.1 | -3.1 | -1.1
29 | -13.7 | 32.4 | x
30 | 5.9 | -3.5 | 3.2
31 | -0.9 | 0.2 | 73.2*
32 | 0.7 | -9.0 | -1.9

Other compounds follow.
No. | molecule | UUG fidelity | ABCB6 inh 2 | PKA-R2B activ | Granule exo inh
33 | O=C(C[C@H]1C=C[C@@H](NC(=O)Nc2ccc3c(c2)OCO3)[C@H](CO)O1)NCc1ccc(Cl)cc1 | -7.3 | x | x | x
34 | Cn1cnc(S(=O)(=O)N[C@@H]2CC[C@@H](CC(=O)N3CCN(c4ccccc4)CC3)O[C@@H]2CO)c1 | -7.1 | x | x | x
35 | Fc1cccc(CCN2CCNC[C@@H]2CC2CCCCC2)c1 | 23.2 | 101.0 | -10.6 | 61.8*
36 | c1ccc(C2(CN3CCNC[C@@H]3CC3CCCCC3)CC2)cc1 | 9.1 | 99.0 | -8.9 | -8.6
37 | CCCn1nc2cc(C(=O)NCCCCc3ccccc3)ccc2c1OCC | -18.7 | 94.0 | -0.6 | 87.0*
38 | C[C@H](CO)N1C[C@H](C)[C@@H](CN(C)C)Oc2cc(C#CC3CC3)ccc2S1(=O)=O | 5.0 | x | x | x
39 | CCOC(=O)N1CCN(CC(O)COc2c(C)cc(C)cc2C)CC1 (stereo not drawn) | -12.2 | 96.0 | -7.6 | 62.3*
40 | COc1ccc(NC(=O)COc2ccccc2)cc1Cl | -17.1 | 96.0 | 0.8 | -3.5
41 | COc1ccc(NC(=O)COc2ccccc2C(=O)NCC(c2ccccc2)N(C)C)cc1Cl (stereo not drawn) | 21.1 | 98.0 | 3.3 | 65.8*
42 | CCCN1CCC(NCc2cn(C)nc2-c2ccc(Oc3ccccc3)cc2)CC1 | x | 96.0 | -7.8 | 76.6*
43 | COC1CCCN(Cc2cn(C)nc2-c2ccc(Oc3ccccc3)cc2)C1 (stereo not drawn) | x | 101.0 | -10.8 | 0.4

No. | PKA-R1A act | pCIP destab | Granule exo CP1
33 | x | x | x
34 | x | x | x
35 | 7.5 | x | -11.3
36 | 5.1 | x | x
37 | 12.9 | -7.5 | -12.6
38 | x | x | x
39 | -12.9 | -2.9 | -15.4
40 | 17.4 | -12.5 | x
41 | -0.9 | 2.8 | -12.2
42 | 0.6 | 1.5 | 17.0
43 | -15.1 | -4.5 | x

Excerpt: compounds 40–43
No. | molecule | UUG fidelity | ABCB6 inh 2 | PKA-R2B activ | Granule exo inh
40 | COc1ccc(NC(=O)COc2ccccc2)cc1Cl | -17.1 | 96.0 | 0.8 | -3.5
41 | COc1ccc(NC(=O)COc2ccccc2C(=O)NCC(c2ccccc2)N(C)C)cc1Cl (stereo not drawn) | 21.1 | 98.0 | 3.3 | 65.8*
42 | CCCN1CCC(NCc2cn(C)nc2-c2ccc(Oc3ccccc3)cc2)CC1 | x | 96.0 | -7.8 | 76.6*
43 | COC1CCCN(Cc2cn(C)nc2-c2ccc(Oc3ccccc3)cc2)C1 (stereo not drawn) | x | 101.0 | -10.8 | 0.4

No. | PKA-R1A act | pCIP destab | Granule exo CP1
40 | 17.4 | -12.5 | x
41 | -0.9 | 2.8 | -12.2
42 | 0.6 | 1.5 | 17.0
43 | -15.1 | -4.5 | x
